# Apparent affinities of Ab-91 variants for a coronavirus HR2 peptide

The measurements come from Engelhart et al. 2022 (doi:10.1038/s41597-022-01779-4) through the FLAb antibody collection.

Binding partner: SARS-CoV-2 spike HR2 peptide, sequence PDVDLGDISGINAS.

Parent scFv Ab-91: VL joined to VH by the linker GGGGSGGGGSGGGGS. Changes lie in the heavy chain CDRs alone.
VL: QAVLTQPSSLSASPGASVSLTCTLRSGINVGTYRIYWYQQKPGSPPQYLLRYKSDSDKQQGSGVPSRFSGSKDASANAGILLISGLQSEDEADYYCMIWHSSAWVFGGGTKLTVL
VH: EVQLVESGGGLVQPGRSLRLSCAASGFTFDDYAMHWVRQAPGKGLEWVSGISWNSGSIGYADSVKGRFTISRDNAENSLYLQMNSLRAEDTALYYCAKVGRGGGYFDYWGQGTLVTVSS

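Phage display of a naive human antibody library on the peptide gave the parent. Variants in AAYL51 differ from the parent at up to three CDR positions; double and triple changes were sampled at random. Affinity was read by AlphaSeq, a pooled yeast mating assay with surface-displayed partners. Binding brings cells together so that they mate, and sequencing counts the barcode pairs among the diploids. Read counts were normalised to the haploid input and turned into Kd by a linear fit to BCL2-family pairs of known affinity, for each replicate. Each pool was mated in three replicate cultures.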

Each variant is given by its three heavy chain CDRs, as the data file delimits them; those of the parent are GFTFDDYAMH, GISWNSGSIGYADSVK, VGRGGGYFDY. All variants listed here change Y108 of the VH, counted from its first residue. Scale: log10 of Kd in nM, estimated from mating counts; low values are strong binders. A mean of the replicates is given; it leaves out those without a signal. An entry "no signal" has no value in the source: the pair was not observed among the diploids in any replicate. This suggests poor binding but is not conclusive. Parent in this assay: reference entry 1.86, copy in this library 0.88. Nonspecific signal, from three strains lacking the peptide, appeared in 21% of pairings of library AAYL51, centred on 4.54 (5% of these signals below 3.26); values are not corrected for it.

CDR-H1,CDR-H2,CDR-H3,"mean, log10 nM",detected
GFTFDDYAMH,GCSWNSGSIGYASSVK,VGRGGGYFDN,4.62,1/3
GFTFDDYAMH,GASWNSGSIGYADSVK,VGRGGGYYDG,no signal,0/3
GFTFDDYAMH,GIIWNSGSIGYADSKK,VGRGGGYFDS,no signal,0/3
KFTFDDYAMH,GISWNSLSIGYADSVK,VGRGGGYFDS,4.69,3/3
GFTKDDYAMH,GISWNLGSIGYADSVK,VGRGGGYFDF,no signal,0/3
GFTFDDYAMH,GQSWNSGSIGYKDSVK,VGRGGGYFDS,no signal,0/3
GQTFDDYAMH,GISWNSGSIGMADSVK,VGRGGGYFDE,5.25,1/3
RFTFDDYAMH,GISWNSGSIGYADSVK,LGRGGGYFDE,4.55,2/3
GQTFDDRAMH,GISWNSGSIGYADSVK,VGRGGGYFDE,3.21,1/3
GFTFFDNAMH,GISWNSGSIGYADSVK,VGRGGGYFDP,4.90,2/3
GFTFDDYAMH,GISWNSGSIGYVDSVK,VGRGGGYFDS,0.99,3/3
GKTFDDYAMH,GIWWNSGSIGYADSVK,VGRGGGYFDR,no signal,0/3
GFTFDDYAMH,GISWNSGSIGPADSEK,VGRGGGYFDV,5.00,3/3
GFTFDDYAMH,CISWNSGSIGYADFVK,VGRGGGYFDA,no signal,0/3
GFTTDDYAMH,GISWNSGSIGYADSVK,KGRGGGYFDK,1.32,3/3
GFDFDDYNMH,GISWNSGSIGYADSVK,VGRGGGYFDW,4.25,1/3
GFTFDDYAMH,GISWNSGSIGYADSVE,VGRAGGYFDL,5.23,1/3
GFTFDDYAMH,QISWNSGSIGYADSVK,VNRGGGYFDR,4.36,2/3
GFTFDYYAMH,GIIWNSGSIGYADSVK,VGRGGGYFDV,4.98,2/3
GFTFDDYAMH,GISWNSGSIGYADSVK,VGRGGGYFDW,1.10,3/3
YFTFDDYAMH,GISWNSGSIGYADGVK,VGRGGGYFDF,no signal,0/3
GFTFMDYAMH,GISWNSGSIGYADSFK,VGRGGGYFDE,no signal,0/3
GFTFDDYIMH,GISWNSGSIGYADSVK,VGRGGGYFAD,3.95,3/3
EFTKDDYAMH,GISWNSGSIGYADSVK,VGRGGGYFDH,no signal,0/3
GFTFDDYAMH,GISWNSGSIGYLDSWK,VGRGGGYFDI,no signal,0/3
GFTFDDYAMH,GISANSTSIGYADSVK,VGRGGGYFDM,4.31,1/3
GFTTDDYAMH,GISRNSGSIGYADSVK,VGRGGGYFDW,3.26,1/3
GFTFDDYAMH,GTSWNSGSIGNADSVK,VGRGGGYFDA,no signal,0/3
GFTFDDYAMH,GISWNSGSIGYADSQK,VGRGGGYFDQ,4.04,2/3
GFTFDDYAMH,GISWNSGEIGYADNVK,VGRGGGYFDS,1.14,3/3
GFTFDDYAMH,GISWNHGSIGYADSVK,VGRGGGAFDG,no signal,0/3
GFFFDDYAMH,GRSWNSGSIGYADSVK,VGRGGGYFDG,no signal,0/3
GFTKDDYAMH,GISWNSGSIGYEDSVK,VGRGGGYFDK,4.12,2/3
GFTFDYYAMH,GISWNSGSIGMADSVK,VGRGGGYFDG,no signal,0/3
GFTFDDYAMH,GIPWNSGSIGYADSVK,VGRGGQYFDF,4.28,1/3
GFTFDDYLMH,GISWNSGSIGYADSVK,VGRGGGYFDK,no signal,0/3
GFTFDDYAMH,GISWNSKSIGYADSVK,VGRGGGYFDK,1.75,3/3
GFTFDDYIMH,GISWNKGSIGYADSVK,VGRGGGYFDN,4.71,1/3
GFTFDDYAMH,GISYNSGSDGYADSVK,VGRGGGYFDA,2.18,3/3
GFTFDVYAMH,GISWNSGSIMYADSVK,VGRGGGYFDH,4.11,3/3
GFTFDDYNMH,GISWNSGSIGYADSVT,VGRGGGYFDP,4.03,1/3
GLTLDDYAMH,GISWNSGSIGYADSVK,VGRGGGYFDV,1.22,3/3
GFTFDDEAMH,GISWNSGSIHYADSVK,VGRGGGYFDE,no signal,0/3
GFTFDDYAMH,GISWNSGSIGYADSVK,VGRAGGYFDL,1.65,3/3
GFTFDDYAMH,GISWNSGSIGYAHSWK,VGRGGGYFDF,3.62,1/3
GFTFDDYPMH,GISWNSGSIGYADSVK,VGRGMGYFDT,4.66,1/3
GFTFDDYAMH,GIHWNSGSIGYADSVK,VGRGGGYFDK,5.62,1/3
GFTRDDYAMH,GISWNSGSIGYADSVK,VGRGGLYFDP,5.24,2/3
GFTFDDYAMH,GIYWNSGSIGYADSVK,VGAGGGYFDD,no signal,0/3
GFTFDDYAMH,GISWNSGVIGYADSVV,VGRGGGYFDF,3.84,2/3
GFTFDDYAMN,GISWNSGSIGYADSVK,VGRGGGYFYQ,no signal,0/3
GATFDDYAMH,GISWNSHSIGYADSVK,VGRGGGYFDC,3.33,3/3
GFTEDDYAMH,GISWNSGSIGYMDSVK,VGRGGGYFDA,4.84,3/3
GFTFDDYAMH,GISWSSGSIGYADSVK,VGRGGGYFDM,1.27,3/3
GFTFDDYAMH,GISCNSGSIQYADSVK,VGRGGGYFDG,6.21,1/3
GFTFDDYAMH,GISWNSGSIGYADSVK,VGRGGGWFDQ,1.28,3/3
GFTFDDYAMH,GISWNSGSIEYADSVK,VGRGGGYDDM,5.80,2/3
GFTFDDYAMH,GISWNSGSIHPADSVK,VGRGGGYFDC,3.03,1/3
GHTFDDYAMH,GISWNSGSIGYADSVK,VGRGGGYFDF,5.17,1/3
GFTFDDYAMH,GISWNSMNIGYADSVK,VGRGGGYFDA,2.23,3/3
GFTFDDYSMH,GISWNSGSIKYADSVK,VGRGGGYFDT,no signal,0/3
GFTFDTYAMH,GISWNSGSIGYADSVP,VGRGGGYFDV,no signal,0/3
GFTFDDYAMH,GISWNSGSIGYADSHK,VGRGGGYFDN,no signal,0/3
GMTFDDYAMH,GISWNSGSIGYADSHK,VGRGGGYFDA,no signal,0/3
GFTFDDYAMH,GISWNSGSIGFADSVK,VGRVGGYFDV,2.69,3/3
GFTFDDYANH,GISWNSGSIGYADSVK,VGRGGKYFDI,no signal,0/3
GFTFDDYAMG,GISWDSGSIGYADSVK,VGRGGGYFDI,4.63,3/3

For reference, 7 entries of the list once more:

| CDR-H1 | CDR-H2 | CDR-H3 | mean, log10 nM | detected |
|---|---|---|---|---|
| GFTFDYYAMH | GISWNSGSIGMADSVK | VGRGGGYFDG | no signal | 0/3 |
| GMTFDDYAMH | GISWNSGSIGYADSHK | VGRGGGYFDA | no signal | 0/3 |
| GFTFDDYAMN | GISWNSGSIGYADSVK | VGRGGGYFYQ | no signal | 0/3 |
| GFTFDYYAMH | GIIWNSGSIGYADSVK | VGRGGGYFDV | 4.98 | 2/3 |
| GFTFFDNAMH | GISWNSGSIGYADSVK | VGRGGGYFDP | 4.90 | 2/3 |
| GFTKDDYAMH | GISWNSGSIGYEDSVK | VGRGGGYFDK | 4.12 | 2/3 |
| GFTFDDYAMH | GISWNSGSIGYAHSWK | VGRGGGYFDF | 3.62 | 1/3 |